For assay [1], the target named is T1, D-amino-acid oxidase (Homo sapiens, UniProt P14920). Kind of assay: Inhibition of full length human DAO transfected in CHO-K1 cells incubated for 30 mins by Amplex red and horseradish peroxidase based fluorescence assay. The assay is classed as cell-based.
Assay [2] deals with T1, D-amino-acid oxidase. Kind of assay: Inhibition of recombinant full length human DAO preincubated with compound for 20 mins measured after 4 hrs by Amplex red and horseradish peroxidase based fluorescence assay.

Protein sequences, listed by entry. Tags and fused reporters are not part of them. Lines headed by an entry give the natural chain unless they say otherwise; changes in a name come on top.
UniProt P14920: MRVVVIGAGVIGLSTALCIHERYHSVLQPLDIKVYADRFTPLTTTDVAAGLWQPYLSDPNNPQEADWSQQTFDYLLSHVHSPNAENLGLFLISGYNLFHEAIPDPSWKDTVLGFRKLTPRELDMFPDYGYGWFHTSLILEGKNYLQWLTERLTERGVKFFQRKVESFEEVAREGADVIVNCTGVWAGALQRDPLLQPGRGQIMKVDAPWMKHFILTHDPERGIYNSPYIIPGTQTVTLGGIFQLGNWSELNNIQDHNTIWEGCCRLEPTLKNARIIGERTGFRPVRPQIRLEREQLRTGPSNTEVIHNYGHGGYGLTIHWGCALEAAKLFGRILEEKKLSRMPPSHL

In general, EC50 refers to the concentration at which the effect is half-maximal. As usually defined, the IC50 is the midpoint of a concentration-inhibition curve. In turn, `N#Cc1ccc(SCc2c[nH]c(=O)c(=O)[nH]2)cc1Cl` showed an EC50 at D-amino-acid oxidase [1] of 880 nM. In addition, the IC50 at D-amino-acid oxidase [2] was 98 nM.

The compound `N#Cc1ccc(CSc2c[nH]c(=O)c(=O)[nH]2)cc1F` returned an EC50 on D-amino-acid oxidase [1] of 200 nM. For the same compound, the IC50 at D-amino-acid oxidase [2] came out at 54 nM.

Turning to `O=c1[nH]cc(CSc2ccc(C(F)(F)F)cc2)[nH]c1=O`, the EC50 on D-amino-acid oxidase [1] came to 600 nM. Moreover, the IC50 on D-amino-acid oxidase [2] was 92 nM.

On D-amino-acid oxidase [1], `O=c1[nH]cc(SCc2ccc(S(F)(F)(F)(F)F)cc2)[nH]c1=O` displayed an EC50 of 380 nM. The IC50 at D-amino-acid oxidase [2] was 97 nM.

`CS(=O)(=O)c1ccc(SCc2c[nH]c(=O)c(=O)[nH]2)cc1` came in with an EC50 on D-amino-acid oxidase [1] of 830 nM. Further, the IC50 at D-amino-acid oxidase [2] came out at 82 nM.

As to `O=c1[nH]cc([C@@H]2COc3cc(COCc4cccc(F)c4)ccc3S2)[nH]c1=O`, the IC50 at D-amino-acid oxidase [2] is 8 nM.

As for `O=c1[nH]nc(Cc2ccc(Cl)cc2)cc1O`, a half-maximal effect on D-amino-acid oxidase [1] (EC50) was put at 29 nM. For the same compound, the IC50 at D-amino-acid oxidase [2] turned out to be 17 nM.

`C[C@@]1(c2c[nH]c(=O)c(=O)[nH]2)COc2cc(Cl)ccc2S1`: on D-amino-acid oxidase [1], the EC50 was found to be 95 nM. Moreover, on D-amino-acid oxidase [2], the IC50 was determined as 9 nM.

`O=c1[nH]cc(SCc2ccc(C(F)(F)F)cc2)[nH]c1=O` yielded an EC50 at D-amino-acid oxidase [1] of 420 nM. The IC50 on D-amino-acid oxidase [2] is 91 nM.
